The experiment relates to ATGL-KO iPSCs. As to the kind of experiment: High throughput iPSC chemical screening, Oil Red O (ORO) lipid accumulation. Also: test concentration or dose not given here. As to conditions: normalized ORO level vs DMSO-treated cells; compound present during 7 days differentiation, 96-well; negative = decrease in lipid accumulation. The format is cell-based, mouse.

Z-score data for one compound are collected here from patent US9393221B2, “Methods and compounds for reducing intracellular lipid storage” (THE GENERAL HOSPITAL CORPORATION, priority 2011, dated 2016).

`NC(=O)Nc1ccc([As](=O)(O)O)cc1` displayed a Z-score of 0.3039.
